This note sets out measurements from ChEMBL document CHEMBL1133725, “Modeling of kappa-opioid receptor/agonists interactions using pharmacophore-based and docking simulations” (J Med Chem, 2000).

Chains of the proteins cited; added tags and fusions are not shown. Lines headed by an entry give the natural chain unless they say otherwise; changes in a name come on top.
UniProt P41144: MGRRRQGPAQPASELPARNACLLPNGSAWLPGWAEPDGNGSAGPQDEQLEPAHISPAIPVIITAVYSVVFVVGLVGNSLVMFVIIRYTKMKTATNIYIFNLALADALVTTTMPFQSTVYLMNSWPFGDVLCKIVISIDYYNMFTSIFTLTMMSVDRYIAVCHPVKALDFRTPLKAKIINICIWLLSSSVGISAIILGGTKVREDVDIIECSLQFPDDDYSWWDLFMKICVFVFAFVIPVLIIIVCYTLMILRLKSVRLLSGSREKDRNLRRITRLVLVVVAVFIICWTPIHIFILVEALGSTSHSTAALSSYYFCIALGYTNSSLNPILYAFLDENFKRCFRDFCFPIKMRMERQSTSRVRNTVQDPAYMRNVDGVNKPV

The structures appear in SMILES notation.

This test has as its target Kappa-type opioid receptor (Cavia porcellus, UniProt P41144). Put plainly: Inhibition of [3H]U-69593 binding to Opioid receptor kappa 1 in guinea pig brain homogenates.

In the case of `O=C(Cc1ccc(Cl)c(Cl)c1)N1CCc2c(O)cccc2[C@H]1CN1CCCC1`, the Ki is 90 pM.

In the case of `CN(C(=O)Cc1ccc(Cl)c(Cl)c1)[C@H]1c2ccc(O)cc2CC[C@@H]1N1CCCC1`, the Ki was found to be 1000 pM.
